Results: patent US20040180081A1, “Compositions and kits for the removal of irritating compounds from bodily surfaces” (published 2004)

Assay: Solubility of capsaicin in various substances (sonication, visual evaluation)
Conditions: 90 minutes sonication, water bath to approx. 40° C.

| Substance | Capsaicin Solubility (% w/w) |
| --- | --- |
| Ethoxydiglycol | >50 |
| Octyldodecanol | <5.2 |
